The source of these data is patent publication US20200270233A1, “DHFR INHIBITORS, COMPOSITIONS, AND METHODS RELATED THERETO” (Vyera Pharmaceuticais LLC, priority 2017, published 2020).

Amino acid sequences for entries named in this document (tags omitted). A change or cut given only in a name is not applied to a line headed by its entry.
UniProt Q27783: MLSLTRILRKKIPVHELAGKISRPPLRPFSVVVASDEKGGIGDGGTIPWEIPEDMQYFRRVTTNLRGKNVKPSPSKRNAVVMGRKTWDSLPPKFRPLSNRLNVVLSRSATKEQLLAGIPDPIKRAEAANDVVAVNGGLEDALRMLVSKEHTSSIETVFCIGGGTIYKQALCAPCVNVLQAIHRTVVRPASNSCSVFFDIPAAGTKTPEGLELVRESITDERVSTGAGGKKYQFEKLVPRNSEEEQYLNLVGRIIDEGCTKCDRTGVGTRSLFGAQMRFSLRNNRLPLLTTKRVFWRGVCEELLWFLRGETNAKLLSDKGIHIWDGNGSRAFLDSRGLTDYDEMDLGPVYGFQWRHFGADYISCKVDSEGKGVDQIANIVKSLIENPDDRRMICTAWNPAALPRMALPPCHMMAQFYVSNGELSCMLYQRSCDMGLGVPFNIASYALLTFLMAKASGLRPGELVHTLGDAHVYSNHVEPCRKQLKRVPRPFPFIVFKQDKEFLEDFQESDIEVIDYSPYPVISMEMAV

Structures are written as SMILES.

As usually defined, the IC50 is the point on the concentration scale where inhibition reaches its midpoint.

The target in this test is T. brucei DHFR (tbDHFR) (Trypanosoma brucei brucei, UniProt Q27783). The test can be described thus: biochemical.
Compound `Nc1ncc(N2CCN(c3ccccc3)CC2)c(N)n1` [Compound 4, 5-(4-phenylpiperazin-1-yl)pyrimidine-2,4-diamine] had a concentration for half-maximal inhibition (IC50) of 31.6 nM. This counts as double-digit nanomolar. The value for `Cc1ncc(-c2cccc(N3CCN(c4cnc(N)nc4N)CC3)c2)cn1` [Compound 69, 5-(4-(3-(2-methylpyrimidin-5-yl)phenyl)piperazin-1-yl)pyrimidine-2,4-diamine] was 2 nM; that for `Nc1ncc(N2CCN(c3cccc(-c4cncnc4)c3)CC2)c(N)n1` [Compound 74] was 5.62 nM. The value for `COc1ncc(-c2cccc(N3CCN(c4cnc(N)nc4N)CC3)c2)cn1` [Compound 78, 5-(4-(3-(2-methoxypyrimidin-5-yl)phenyl)piperazin-1-yl)pyrimidine-2,4-diamine] was 2.09 nM; that for `Nc1ncc(N2CCN(c3cccc(-c4cnc(C5CC5)nc4)c3)CC2)c(N)n1` [Compound 86] was 2.51 nM; that for `Nc1ncc(N2CCN(c3cccc(-c4cnc(C(F)(F)F)nc4)c3)CC2)c(N)n1` [Compound 87] was 7.41 nM.

As to `CCc1ncc(-c2cccc(N3CCN(c4cnc(N)nc4N)CC3)c2)cn1` [Compound 95], it took 3.8 nM to reach half-maximal inhibition (IC50).

Compound `Nc1ncc(N2CCN(c3cccc(-c4cnc(Cl)nc4)c3)CC2)c(N)n1` [Compound 100] gave an IC50 of 2.51 nM.
